Measurements from paper PMC10740061 (Food Chemistry: X, 2023).
Marks after values point to notes of the source that are not given here.

System: Caco-2 monolayer
Assay: Caco-2 monolayer transmembrane transport, apical to basolateral
Assay type: in vitro ADME, human
Conditions: WD (wheat flour digested products) 400 µg/mL; 40 µM flavonoid; 6 h; A to B; mean ± SD (n = 3)

PappAtoB: 10.83 ± 0.25^c × 10^-6 cm/s
SMILES: O=c1c(O)c(-c2ccc(O)c(O)c2)oc2cc(O)cc(O)c12 [Quercetin]
